Results on one molecule are retold here after patent publication US11639343B2, “Compounds targeting and degrading BCR-ABL protein and its antitumor application” (ShanghaiTech University, priority 2019, dated 2023).

Molecules are shown by their SMILES. Some results are limits rather than exact numbers.

This experiment concerns HEK293 (BCR-ABL-) cells. The experiment is described as follows: CCK-8 proliferation inhibition, HEK293 cells.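 Note: Ten-point threefold dilution series starting at 10 µM, CCK-8 absorbance at 450 nm read after 2 h reagent incubation, DMSO-treated cells as negative control.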 The note with it: Homo sapiens, HEK293, 48 h, read-out: Proliferative inhibitory activity (IC50, nM) HEK293 (BCR-ABL-).

Consider `Cc1nc(Nc2ncc(C(=O)Nc3c(C)cccc3Cl)s2)cc(N2CCN(CCO)CC2)n1` [Dasatinib, reference compound], for which the concentration for half-maximal inhibition (IC50) is more than 10000 nM.

The term IC50 denotes the midpoint of a concentration-inhibition curve.
